Source: patent US7541157B2, “Method of screening groups of radioactive molecules and applications thereof” (Commissariat a l'Energie Atomique, priority 2002, dated 2009)

Protein sequences, listed by entry. Tags and fused reporters are not part of them. Residues count along the entry.
UniProt P12821, 30-1306, species assumed: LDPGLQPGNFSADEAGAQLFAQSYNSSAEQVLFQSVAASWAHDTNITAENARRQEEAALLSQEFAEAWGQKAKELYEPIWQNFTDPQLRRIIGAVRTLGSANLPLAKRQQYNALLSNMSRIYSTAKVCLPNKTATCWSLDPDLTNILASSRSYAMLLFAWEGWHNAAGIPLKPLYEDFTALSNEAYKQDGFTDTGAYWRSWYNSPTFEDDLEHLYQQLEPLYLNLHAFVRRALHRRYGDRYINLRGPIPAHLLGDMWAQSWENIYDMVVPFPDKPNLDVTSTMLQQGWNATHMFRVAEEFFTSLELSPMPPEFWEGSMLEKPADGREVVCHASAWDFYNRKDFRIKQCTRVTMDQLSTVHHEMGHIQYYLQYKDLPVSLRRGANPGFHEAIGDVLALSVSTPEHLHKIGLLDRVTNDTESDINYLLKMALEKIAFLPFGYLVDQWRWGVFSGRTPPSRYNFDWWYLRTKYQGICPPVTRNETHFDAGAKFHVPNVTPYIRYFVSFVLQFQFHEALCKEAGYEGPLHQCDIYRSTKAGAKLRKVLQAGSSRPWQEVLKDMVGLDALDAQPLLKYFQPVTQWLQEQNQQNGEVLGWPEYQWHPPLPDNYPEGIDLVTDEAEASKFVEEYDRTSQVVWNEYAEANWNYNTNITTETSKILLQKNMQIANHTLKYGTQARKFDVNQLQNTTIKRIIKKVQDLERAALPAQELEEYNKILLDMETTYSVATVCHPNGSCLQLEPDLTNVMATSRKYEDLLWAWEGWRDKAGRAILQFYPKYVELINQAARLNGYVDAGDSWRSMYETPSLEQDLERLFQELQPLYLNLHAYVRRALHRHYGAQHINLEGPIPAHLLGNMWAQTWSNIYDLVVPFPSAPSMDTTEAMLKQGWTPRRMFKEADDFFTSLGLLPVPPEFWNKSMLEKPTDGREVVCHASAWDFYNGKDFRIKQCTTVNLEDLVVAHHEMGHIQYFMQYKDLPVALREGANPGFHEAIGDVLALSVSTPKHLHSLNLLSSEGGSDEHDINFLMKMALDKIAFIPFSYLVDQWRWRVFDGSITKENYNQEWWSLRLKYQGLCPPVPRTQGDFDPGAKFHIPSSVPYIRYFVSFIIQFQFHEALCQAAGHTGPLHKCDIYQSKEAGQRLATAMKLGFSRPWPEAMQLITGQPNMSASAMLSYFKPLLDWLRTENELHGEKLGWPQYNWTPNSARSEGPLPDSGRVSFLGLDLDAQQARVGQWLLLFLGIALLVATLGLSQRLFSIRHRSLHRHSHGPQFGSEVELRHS
UniProt P08473, whole entry, species assumed: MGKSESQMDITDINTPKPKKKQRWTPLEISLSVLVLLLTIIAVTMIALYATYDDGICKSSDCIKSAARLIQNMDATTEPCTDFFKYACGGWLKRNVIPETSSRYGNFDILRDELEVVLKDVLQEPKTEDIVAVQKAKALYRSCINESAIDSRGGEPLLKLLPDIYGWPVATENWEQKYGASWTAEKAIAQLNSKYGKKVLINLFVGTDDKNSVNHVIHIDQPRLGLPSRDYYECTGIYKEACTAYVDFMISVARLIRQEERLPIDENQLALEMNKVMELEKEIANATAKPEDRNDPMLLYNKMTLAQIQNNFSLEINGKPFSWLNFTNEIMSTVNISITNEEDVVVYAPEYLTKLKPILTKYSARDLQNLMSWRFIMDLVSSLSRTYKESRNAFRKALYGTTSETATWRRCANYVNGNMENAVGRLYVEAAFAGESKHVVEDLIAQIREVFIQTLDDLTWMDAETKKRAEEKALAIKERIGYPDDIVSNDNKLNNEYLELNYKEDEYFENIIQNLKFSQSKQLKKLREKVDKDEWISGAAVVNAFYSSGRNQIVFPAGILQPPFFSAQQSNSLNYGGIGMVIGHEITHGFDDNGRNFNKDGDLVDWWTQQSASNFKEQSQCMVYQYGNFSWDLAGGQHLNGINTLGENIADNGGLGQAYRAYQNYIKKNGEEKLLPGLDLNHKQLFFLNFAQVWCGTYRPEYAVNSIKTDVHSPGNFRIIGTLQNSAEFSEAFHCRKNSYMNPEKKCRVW

Tests used:
[1] = molecular target: angiotensin I-converting enzyme (ACE) (Homo sapiens, UniProt P12821); experiment: Inhibition of purified angiotensin I-converting enzyme; type: biochemical
Experimental: (§1) For this reason, the inhibitory capacity of the phosphinic peptide propyl-NH-Arg-Phe(PO2—CH2)Leu-Ala-NH2 was evaluated with respect to the purified forms of these two peptidases (measurement of the Ki values according to Dive et al., PNAS, 1999, 96, 4330-4335). […] This compound therefore behaves as an extremely potent inhibitor with respect to these two peptidases.
(§2) In order to have a better knowledge of the inhibitory properties of the various molecules contained in the starting library, with respect to ACE and NEP, the inhibitory capacity of sublibraries containing discrete mixtures of generic formula: propyl-NH-Aaa-Phe (PO2—CH2)Leu-Yaa-NH2
(§3) in which the position marked as Aaa contains a specific amino acid, whereas, in position Yaa, a mixture of 20 natural acids occurs, was evaluated.
FIG. 24 gives the percentage inhibition of the mixtures of phosphinic peptides, corresponding to the generic formula above, with respect to ACE, according to the nature of the residue at position Aaa. The results reported in this figure indicate very clearly that many phosphinic peptides present in these sublibraries appear to be potent inhibitors of ACE. Advantageously, it is seen that, among the residues at position Aaa that optimize the inhibitory capacity of the compounds with respect to ACE, are the residues His, Arg and Tyr.

[2] = Tissue distribution of the pure radiolabeled peptide in mice (autoradiography, HPLC with radioactivity detection); type: in vivo, mouse; settings: 20 mg/kg
Experimental: (§4) The mice used for the experiments are female Balb/C mice. The phosphinic peptides of the library (10 mg, radioactivity ranging from 0.8 to 1 mCi) are solubilized in a solution of PBS containing 10% of DMSO. If the presence of 400 molecules in this library is considered, the amount of each product injected is of the order of 25 μg per animal, representing a dose of 1.25 mg/kg for mice weighing 20 g. In the case of injection of a single product, the doses used were 20 mg/kg, for a total radioactivity ranging from 100 to 150 μCi. The injections were given at various times (5 min, 1 h, 3 h and 24 h).
Immediately after the animals had been sacrificed, the various organs or tissues are removed, rinsed in a PBS solution and immersed in heptane cooled to −70° C. (eutectic mixture of heptane and dry ice). The frozen tissue sections, 25 μm thick, are prepared by means of a microtome at −20° C. After drying, the sections are analyzed in a β-imager.
FIGS. 14 to 19 represent HPLC spectra, with detection of radioactivity, corresponding to the pure tritiated product propyl-Arg-Phe(PO2—CH2)Leu-Ala-NH2, and to the various organ extracts originating from a mouse that was administered the peptide propyl-Arg-Phe(PO2—CH2)Leu-Ala-NH2 (20 mg/kg, 100 μCi) and was sacrificed 1 h after injection of the product.
In order to illustrate the ability of the peptide propyl-Arg-Phe(PO2—CH2)Leu-Ala-NH2, firstly, to target certain organs such as the heart and the lungs and, secondly, to accumulate in these organs, another molecule was used under the same conditions as a negative control; it is another molecule of the library described above, i.e. propyl-Tyr-Phe(PO2—CH2)Leu-Pro-NH2.

[3] = molecular target: neutral endopeptidase (NEP, neprilysin) (Homo sapiens, UniProt P08473); experiment: Inhibition of purified neutral endopeptidase; type: biochemical; settings: purified enzyme
Experimental: as §1, §2, §3
When the same sublibraries are tested on NEP (FIG. 25), it also appears that many peptides contained in the sublibraries should behave as very potent inhibitors of NEP. It will be noted that several types of amino acid at position Aaa optimize the enzyme-inhibitor interactions.

[4] = In vivo screening of the tritiated phosphinic peptide library in mice (β-imager autoradiography, organ extraction, MS/MS); design: species or system mouse; settings: kidney, lung and heart extracts after i.p. injection of the library
Experimental: as §4
Immediately after the animals had been sacrificed, the various organs or tissues are removed, rinsed in a PBS solution and immersed in heptane cooled to −70° C. […] After drying, the sections are analyzed in a β-imager. […]
After a certain period of time (1 h or 15 min), the animals are sacrificed. Whole body sections are prepared and analyzed by autoradiography on a β-imager, a device capable of detecting the β-radiation of tritium. These experiments indicate, both at 15 min and 1 h after injection of the library, that radioactivity is observed in various organs; FIG. 5 illustrates an autoradiograph, produced on a β-imager, of a sagittal section of the whole body of a mouse which was administered a solution containing the library of phosphinic peptides and which was sacrificed 1 h after the injection. […]

[5] = Quantification of the radiolabeled peptide in mouse organs by β-imager and mass spectrometry; type: in vivo; settings: mice, 500 μg injected, 1 h
Experimental: In order to establish this comparison, 500 μg of a tritium-radiolabeled phosphinic compound propyl-Arg-Phe(PO2—CH2)Ala-Ala-NH2 (pro-Arg) (specific radioactivity of 68 mCi/mmol) were injected into mice. One hour after injection of the product, its tissue distribution was studied by detection of the radioactivity using frozen tissue sections. The organs containing radioactivity were treated in order to prepare tissue extracts which could enable their analysis by mass spectrometry, in accordance with the extraction protocol illustrated in FIG. 26.
Based on the integration of the signal and of the specific radioactivity of the product (68 mCi/mmol), it is possible to determine the amount of product present per mm^2 of kidney.
Mass: the product is extracted from ground kidney material originating from an animal treated under the same conditions as above (extraction protocol described in FIG. 26), followed by concentration of the fractions to dryness and taking up the product in 100 μl of solvent (water/formic acid; 50:50); if the extraction was quantitative, the theoretical concentration of the sample should be of the order of 1.5 mM. Based on this working hypothesis, it can be estimated that the injection of a microliter of this 100-fold diluted solution (15 μM) represents 15 pmol of product introduced into the mass spectrometer (Electrospray, Quatro, Micromass).

[6] = integrated over the whole kidney

## propyl-NH-Arg-Phe(PO2—CH2)Leu-Ala-NH2
[1]; corresponding to the IC50, read-out: inhibition constant Ki, angiotensin-converting enzyme
  Ki: 15 nM
[1]; read-out: IC50 with respect to angiotensin-converting enzyme
  IC50: 30 nM
[2]; 100 μCi, 1 h
  ability to accumulate in the heart and the lungs and to appear in the brain, compared with the negative control peptide: distinguishes itself very clearly
[2]; 100 μCi, I.P., 1 h
  crossing of the blood-brain barrier: capable of crossing the blood-brain barrier
[2]; 100 μCi, I.P., sacrificed 1 h after injection
  tissue distribution by autoradiography: observed in the heart, the brain, the liver, the lungs and the kidneys
[2]; I.P., 1 h, extraction and structural analysis
  form of the radioactivity found in the organs (metabolic stability): in intact form
[3]; corresponding to the IC50, read-out: inhibition constant Ki, NEP
  Ki: 30 nM
[3]; read-out: IC50 with respect to NEP
  IC50: 100 nM
[4]
  presence of the peptide in organ extracts by MS/MS: this peptide is present in these organs
[5]; brain extract
  presence of the product in brain extract by MS/MS fragmentation: presence of the intact product in the brain
[5]; brain, β-imager
  radiolabeling in a localized region of the brain: 0.35 pCi/mm^2
[5]; [6]
  total amount of product in the kidney: 75 µg
  total amount of product in the kidney, share of the injected dose: 15 % of the injected dose
[5]; kidney
  amount of product per mm^2 of kidney (mass): 127 pg/mm^2
[5]; kidney, β-imager
  radioactive signal on kidney section: 14.5 pCi/mm^2
[5]; kidney, from specific radioactivity 68 mCi/mmol
  amount of product per mm^2 of kidney (molar): 0.2 pmol/mm^2
[5]; lung
  amount of product in the lung, share of the injected dose: 2.2 % of the injected dose
[5]; lung, β-imager
  radioactivity in the lung: 2.6 pCi/mm^2
